The source of these data is ChEMBL document CHEMBL4513216, “Probing the Open Global Health Chemical Diversity Library for Multistage-Active Starting Points for Next-Generation Antimalarials” (ACS Infect Dis, 2020).

The subject of the data set is HepG2. Description: Toxicity liver stage against HepG2, at 10uM. Type of data set: cell-based. Details: test concentration 10 uM, cell line HepG2-A16-CD81EGFP. The conditions noted are these: human, hepg2, 10 µM. In a few lines:
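Uninfected HepG2-A16-CD81EGFP cells, 3 × 10^3 per well, 1536-well, plated on prespotted compound at 10 μM final, parasite-free screening media added to match infected plates; puromycin 10 μM positive, DMSO 0.5% negative; run in parallel with 48 h PbLuc assay at 37 °C, 5% CO2; viability by CellTiter-Glo luminescence, normalized to controls.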

The structures appear in SMILES notation. Some compounds may have been tested in ways that are not shown here.

As for `CC1(C)CN(C2(CNC(=O)c3csnn3)CCCCC2)CCO1`, the INHIBITION turned out to be 12%.

With `Cc1cccc(NC2CCN(Cc3nc(C)c(C)o3)CC2)c1`, the INHIBITION is -6.03%.

For the compound `COc1ccc(OC)c(NC2CCN(C)CC2)c1`, the INHIBITION is -137%.

`COc1ccccc1NC1CCN(Cc2ccc(Br)s2)CC1`: the INHIBITION was -7.89%.

Regarding `COc1ccc(OC)c(NC2CCN(Cc3ccc(Br)cc3)CC2)c1`, the INHIBITION came to 12.6%.

With `COc1ccccc1NC1CCN(Cc2nc(C)c(C)s2)CC1`, the INHIBITION amounted to 12.9%.

As for `COc1cc(NC2CCN(C(C)c3nnc(C)o3)CC2)cc(OC)c1` (stereo not drawn), the INHIBITION turned out to be 3.23%.

On to `COc1ccc2[nH]c(C(=O)NCC3(N)CCCCC3)cc2c1`, for which the INHIBITION was -1.31%.
